{"source": "patent US20070202163A1", "about": "(priority 2005, published 2007)", "details": "rabbits; 30 mg sublingual tablet; mean ± SD", "method": "Sublingual tablets or IM doses were administered using a Randomized Crossover study design over 5-consecutive weeks.\nAnimals were evaluated for viability once-daily throughout the study. Cageside clinical observations were performed twice-daily from the initiation of dosing until the end of treatment. Body weights were obtained upon receipt, on Study Day 1 and weekly thereafter.\nBlood samples (approximately 1 mL/time point) were obtained from an indwelling arterial catheter placed approximately 30-minutes prior to initiation of sample collection. […]\nImmediately after collection, the tube was inverted several times to disperse the anticoagulant and then placed on ice until centrifugation. […] (±10° C.) until analyzed. […]\nA freshly prepared standard curve was analyzed along with samples on each day of analysis. […] Calibrator concentrations were 0.5, 1, 2, 4, 8, 12, 16 and 20 ng/mL as determined in the validation study. […]\nElimination half-life (T½), maximum concentration (Cmax), time of maximum concentration (Tmax), area under the plasma concentration-time curve from time 0 through the final timepoint (AUC0-t), and area under the plasma concentration-time curve from time 0 extrapolated to infinity (AUC0-∞) were calculated for this study. […] The elimination rate constant, lambda z (λz), was determined by WinNonlin using the best fit method."}
{"compound": "CNC[C@H](O)c1ccc(O)c(O)c1", "note": "[Epinephrine]", "values": [{"measurement": "Tmax2", "result": "40.8 ± 29.4", "unit": "min"}]}
